Laboratory results from PMC4548243, “Nuclear Localization of the DNA Repair Scaffold XRCC1: Uncovering the Functional Role of a Bipartite NLS” (Scientific Reports, 2015).

Columns and labels:
[1] = target: M1: FITC-GG-XRCC1 (244-248) (human); test: fluorescence polarisation; direct titration: serial dilutions of Impα into 100 nM FITC-labeled peptide; FP buffer (20 mM Tris pH 7.7, 125 mM NaCl, 1 mM EDTA, 2 mM TCEP, 5% sucrose, 10 mM NaN3); room temperature (legend: 25 °C); apparent dissociation constants, single-site fit
[2] = target: FL-NLS: FITC-XRCC1 (241–276) (human); test: as above

| Kd [1] | cooperativity parameter α (cooperative binding model) [2] | half-saturation point (cooperative binding model) [2] | Substance |
| --- | --- | --- | --- |
| 10.4 µM | – | – | Impα(70–529)(W184R/W231R) (from UniProt P52293 70-529) (domain or fragment) |
| 8.4 µM | 633 | 0.116 µM | murine Importin α with the Importin β binding domain (IBB) deleted, Impα(70–529) (from UniProt P52293 70-529) (domain or fragment) |
